Results: patent EP2698367A1, “Benzimidazoles for the treatment of cancer” (Max-Planck-Gesellschaft zur Förderung der Wissenschaften …, priority 2012, dated 2014)

Protein sequences, listed by entry. Tags and fused reporters are not part of them. Lines headed by an entry give the natural chain unless they say otherwise; changes in a name come on top.
UniProt O43924: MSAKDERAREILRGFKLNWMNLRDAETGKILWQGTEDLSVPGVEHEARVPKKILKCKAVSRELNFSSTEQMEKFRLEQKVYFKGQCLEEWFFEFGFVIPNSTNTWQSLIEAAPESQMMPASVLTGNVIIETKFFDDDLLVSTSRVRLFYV

Target: PDEδ farnesyl pocket (Homo sapiens, UniProt O43924)
Assay: Displacement titrations of labeled probe (fluorescence polarization) for the determination of KD values
Format: binding
Excerpt: The resulting solution was serially diluted, holding the concentrations of S54, PDEδ and DMSO constant. The sealed plates were shaken overnight at room temperature and centrifuged at the beginning of the next day. […] For the fitting of the data to a competition model the exact mathematical solution derived from the law of mass action was used as described by Roehrl et al.^3 Fraction bound data was fit using KD2 as the only fitting parameter and total ligand concentration as independent variable (OriginPro8.6, function codec from origin). [formula] • FSB: Fraction bound of fluorescent probe • KD1: Binding constant of fluorescent Probe determined from direct titration • KD2: Fitting parameter (Binding constant of unlabeld competitor) • LST: Total concentration of unlabeld small molecule competitor • RT: Total protein concentration
For the fitting of data to a competition model with cooperative binding of two benzimidazole fragments the program Scientist 3.0 was used. An experimental system was defined as a series of partial equations including the equilibrium relationships between the various species. Anisotropy data was converted to fraction bound and fitting was carried out in anlogy to a previously described set of equilibrium relationships by Goody and coworkers.^4. KD1 = ([A][PDEDf])/([APDED]) [formula] […]

Row | Structure (SMILES) | Kd [nM]
1 | c1ccc(Cn2c(-c3ccc(OC[C@H](C4CCNCC4)n4c(-c5ccccc5)nc5ccccc54)cc3)nc3ccccc32)cc1 [(S)-9, (S)-1-Benzyl-2-(4-(2-(2-phenyl-1H-benzo[d]imidazol-1-yl)-2-(piperidin-4-yl)ethoxy)phenyl)-1H-benzo[d]imidazole] | 25 to 100
2 | c1ccc(Cn2c(-c3ccc(OC[C@@H](C4CCNCC4)n4c(-c5ccccc5)nc5ccccc54)cc3)nc3ccccc32)cc1 [(R)-9, (R)-1-Benzyl-2-(4-(2-(2-phenyl-1H-benzo[d]imidazol-1-yl)-2-(piperidin-4-yl)ethoxy)phenyl)-1H-benzo[d]imidazole] | 100 to 1000
